For part of these data: The strong results were mostly taken out for another list; the other results follow. How the calls were made is not given here. This is a selection; strong and weak results do not stand in their true shares.
Tests used:
[1] = biological target: MAP kinase-interacting serine/threonine-protein kinase 2 (Homo sapiens) (UniProt Q9HBH9); conditions: at 10 µM
[2] = biological target: Serine/threonine-protein kinase Nek2 (Homo sapiens) (UniProt P51955); conditions: at 10 µM
[3] = biological target: Testis-specific serine/threonine-protein kinase 1 (Homo sapiens) (UniProt Q9BXA7); conditions: at 1 µM
[4] = biological target: T1, Testis-specific serine/threonine-protein kinase 2 (Homo sapiens) (UniProt Q96PF2); conditions: at 1 µM
T1 sequence (whole entry): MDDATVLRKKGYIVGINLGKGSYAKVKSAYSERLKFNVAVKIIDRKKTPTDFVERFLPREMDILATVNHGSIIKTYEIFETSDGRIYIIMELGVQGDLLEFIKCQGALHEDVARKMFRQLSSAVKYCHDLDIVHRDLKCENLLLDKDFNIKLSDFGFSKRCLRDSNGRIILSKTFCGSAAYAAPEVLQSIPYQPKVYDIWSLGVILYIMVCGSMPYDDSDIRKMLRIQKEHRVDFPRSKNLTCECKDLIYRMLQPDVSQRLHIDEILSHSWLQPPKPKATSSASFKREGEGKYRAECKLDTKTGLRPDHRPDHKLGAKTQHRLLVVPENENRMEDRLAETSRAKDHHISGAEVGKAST

Chains of the proteins cited; added tags and fusions are not shown. Lines headed by an entry give the natural chain unless they say otherwise; changes in a name come on top.
UniProt Q9Y3S1: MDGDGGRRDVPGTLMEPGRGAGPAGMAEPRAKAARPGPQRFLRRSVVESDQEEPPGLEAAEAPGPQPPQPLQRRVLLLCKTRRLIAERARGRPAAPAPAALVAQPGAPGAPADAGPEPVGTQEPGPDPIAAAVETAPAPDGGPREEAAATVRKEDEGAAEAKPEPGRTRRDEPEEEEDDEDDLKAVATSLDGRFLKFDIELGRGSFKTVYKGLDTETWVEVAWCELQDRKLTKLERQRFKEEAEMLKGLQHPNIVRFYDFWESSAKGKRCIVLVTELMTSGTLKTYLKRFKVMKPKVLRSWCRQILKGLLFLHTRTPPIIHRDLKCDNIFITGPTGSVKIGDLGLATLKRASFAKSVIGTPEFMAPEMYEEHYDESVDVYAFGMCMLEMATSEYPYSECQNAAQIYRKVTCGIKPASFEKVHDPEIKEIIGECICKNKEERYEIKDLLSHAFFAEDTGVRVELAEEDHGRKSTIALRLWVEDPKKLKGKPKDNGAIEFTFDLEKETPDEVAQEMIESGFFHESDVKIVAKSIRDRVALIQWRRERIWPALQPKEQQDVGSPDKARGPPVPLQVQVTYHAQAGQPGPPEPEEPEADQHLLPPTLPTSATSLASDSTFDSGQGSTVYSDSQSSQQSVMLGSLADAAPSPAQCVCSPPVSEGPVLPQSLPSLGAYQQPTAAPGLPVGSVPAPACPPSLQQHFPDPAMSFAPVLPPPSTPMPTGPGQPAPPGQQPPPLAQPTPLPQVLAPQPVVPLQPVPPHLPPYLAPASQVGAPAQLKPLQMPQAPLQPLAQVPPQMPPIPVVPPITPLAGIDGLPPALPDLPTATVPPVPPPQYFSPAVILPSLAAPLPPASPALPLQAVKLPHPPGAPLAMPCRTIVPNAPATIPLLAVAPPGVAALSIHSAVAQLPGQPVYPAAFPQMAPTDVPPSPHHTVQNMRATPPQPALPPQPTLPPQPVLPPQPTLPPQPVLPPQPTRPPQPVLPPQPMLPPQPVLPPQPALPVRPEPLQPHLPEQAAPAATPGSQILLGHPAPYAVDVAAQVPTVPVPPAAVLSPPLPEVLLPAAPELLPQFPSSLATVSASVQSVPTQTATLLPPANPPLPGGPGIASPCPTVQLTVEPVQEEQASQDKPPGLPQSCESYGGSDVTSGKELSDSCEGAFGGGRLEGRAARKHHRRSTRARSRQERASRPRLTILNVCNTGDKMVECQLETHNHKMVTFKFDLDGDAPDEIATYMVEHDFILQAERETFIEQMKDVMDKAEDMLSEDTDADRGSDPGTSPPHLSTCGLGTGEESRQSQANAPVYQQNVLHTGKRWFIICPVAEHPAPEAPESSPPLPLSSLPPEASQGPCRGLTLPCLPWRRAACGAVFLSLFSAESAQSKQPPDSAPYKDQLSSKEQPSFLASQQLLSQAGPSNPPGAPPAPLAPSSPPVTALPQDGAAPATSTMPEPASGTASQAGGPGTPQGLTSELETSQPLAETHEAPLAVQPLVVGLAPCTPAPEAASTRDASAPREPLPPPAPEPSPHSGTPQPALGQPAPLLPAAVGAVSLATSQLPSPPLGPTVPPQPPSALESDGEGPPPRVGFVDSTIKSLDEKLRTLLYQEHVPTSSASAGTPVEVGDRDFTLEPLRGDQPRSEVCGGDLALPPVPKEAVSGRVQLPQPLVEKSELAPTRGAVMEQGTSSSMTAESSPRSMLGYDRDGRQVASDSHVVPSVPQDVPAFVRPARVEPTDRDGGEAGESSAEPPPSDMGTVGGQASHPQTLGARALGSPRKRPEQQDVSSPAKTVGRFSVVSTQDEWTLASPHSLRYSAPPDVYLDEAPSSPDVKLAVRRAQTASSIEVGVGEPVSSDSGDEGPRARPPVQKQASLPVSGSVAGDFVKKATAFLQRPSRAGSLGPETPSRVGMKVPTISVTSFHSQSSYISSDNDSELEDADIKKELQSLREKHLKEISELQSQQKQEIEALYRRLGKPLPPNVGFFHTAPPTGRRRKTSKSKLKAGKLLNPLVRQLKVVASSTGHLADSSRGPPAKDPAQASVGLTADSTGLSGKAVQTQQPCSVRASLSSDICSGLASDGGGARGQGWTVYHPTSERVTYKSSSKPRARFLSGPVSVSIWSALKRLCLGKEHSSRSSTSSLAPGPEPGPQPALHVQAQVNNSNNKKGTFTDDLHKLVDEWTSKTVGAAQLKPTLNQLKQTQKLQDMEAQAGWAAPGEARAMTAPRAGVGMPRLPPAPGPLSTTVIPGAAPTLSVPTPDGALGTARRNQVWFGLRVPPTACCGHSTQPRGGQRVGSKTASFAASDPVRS
UniProt Q9BYP7: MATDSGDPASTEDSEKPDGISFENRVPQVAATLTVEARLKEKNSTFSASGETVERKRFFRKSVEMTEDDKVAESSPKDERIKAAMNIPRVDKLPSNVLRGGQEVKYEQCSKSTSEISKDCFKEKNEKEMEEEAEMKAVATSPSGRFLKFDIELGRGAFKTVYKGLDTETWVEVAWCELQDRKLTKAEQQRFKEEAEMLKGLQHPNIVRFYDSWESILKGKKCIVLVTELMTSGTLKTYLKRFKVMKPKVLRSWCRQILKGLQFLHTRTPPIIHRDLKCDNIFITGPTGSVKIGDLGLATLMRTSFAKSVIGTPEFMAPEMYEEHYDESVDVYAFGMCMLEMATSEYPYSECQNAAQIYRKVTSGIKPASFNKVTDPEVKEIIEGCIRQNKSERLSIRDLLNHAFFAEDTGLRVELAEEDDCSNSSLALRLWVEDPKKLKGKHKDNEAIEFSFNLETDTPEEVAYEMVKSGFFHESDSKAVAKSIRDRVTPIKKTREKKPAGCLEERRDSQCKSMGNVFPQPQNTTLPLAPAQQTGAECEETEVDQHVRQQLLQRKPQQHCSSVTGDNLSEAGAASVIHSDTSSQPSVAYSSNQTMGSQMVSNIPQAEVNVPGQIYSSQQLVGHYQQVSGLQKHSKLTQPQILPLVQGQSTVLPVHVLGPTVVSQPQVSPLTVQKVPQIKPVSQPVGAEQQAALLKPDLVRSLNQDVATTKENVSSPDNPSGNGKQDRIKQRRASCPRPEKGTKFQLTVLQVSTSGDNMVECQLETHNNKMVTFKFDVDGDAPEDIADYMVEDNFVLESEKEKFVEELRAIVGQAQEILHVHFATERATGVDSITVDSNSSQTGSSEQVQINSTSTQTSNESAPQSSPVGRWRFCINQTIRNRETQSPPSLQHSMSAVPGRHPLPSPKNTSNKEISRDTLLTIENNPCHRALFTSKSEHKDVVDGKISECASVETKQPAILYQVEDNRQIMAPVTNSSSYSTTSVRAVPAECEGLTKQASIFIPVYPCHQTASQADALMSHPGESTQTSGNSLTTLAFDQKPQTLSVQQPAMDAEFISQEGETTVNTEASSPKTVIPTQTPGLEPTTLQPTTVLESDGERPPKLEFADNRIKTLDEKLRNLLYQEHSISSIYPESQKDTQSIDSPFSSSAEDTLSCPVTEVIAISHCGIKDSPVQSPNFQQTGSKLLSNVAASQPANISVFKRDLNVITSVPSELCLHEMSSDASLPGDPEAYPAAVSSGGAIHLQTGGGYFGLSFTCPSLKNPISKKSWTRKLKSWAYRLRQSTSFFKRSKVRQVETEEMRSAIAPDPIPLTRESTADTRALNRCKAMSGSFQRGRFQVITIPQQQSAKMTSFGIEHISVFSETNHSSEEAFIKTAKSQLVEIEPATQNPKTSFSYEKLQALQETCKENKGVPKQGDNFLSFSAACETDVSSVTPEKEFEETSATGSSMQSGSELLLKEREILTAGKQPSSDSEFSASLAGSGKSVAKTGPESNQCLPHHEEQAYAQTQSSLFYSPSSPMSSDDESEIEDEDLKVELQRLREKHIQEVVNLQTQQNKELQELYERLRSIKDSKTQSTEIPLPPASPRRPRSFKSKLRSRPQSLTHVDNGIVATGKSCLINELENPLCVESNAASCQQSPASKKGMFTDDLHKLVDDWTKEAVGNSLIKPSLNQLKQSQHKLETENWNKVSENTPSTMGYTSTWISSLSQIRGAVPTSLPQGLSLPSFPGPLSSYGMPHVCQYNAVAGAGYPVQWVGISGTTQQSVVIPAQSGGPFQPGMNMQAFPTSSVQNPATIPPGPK
UniProt Q9P286: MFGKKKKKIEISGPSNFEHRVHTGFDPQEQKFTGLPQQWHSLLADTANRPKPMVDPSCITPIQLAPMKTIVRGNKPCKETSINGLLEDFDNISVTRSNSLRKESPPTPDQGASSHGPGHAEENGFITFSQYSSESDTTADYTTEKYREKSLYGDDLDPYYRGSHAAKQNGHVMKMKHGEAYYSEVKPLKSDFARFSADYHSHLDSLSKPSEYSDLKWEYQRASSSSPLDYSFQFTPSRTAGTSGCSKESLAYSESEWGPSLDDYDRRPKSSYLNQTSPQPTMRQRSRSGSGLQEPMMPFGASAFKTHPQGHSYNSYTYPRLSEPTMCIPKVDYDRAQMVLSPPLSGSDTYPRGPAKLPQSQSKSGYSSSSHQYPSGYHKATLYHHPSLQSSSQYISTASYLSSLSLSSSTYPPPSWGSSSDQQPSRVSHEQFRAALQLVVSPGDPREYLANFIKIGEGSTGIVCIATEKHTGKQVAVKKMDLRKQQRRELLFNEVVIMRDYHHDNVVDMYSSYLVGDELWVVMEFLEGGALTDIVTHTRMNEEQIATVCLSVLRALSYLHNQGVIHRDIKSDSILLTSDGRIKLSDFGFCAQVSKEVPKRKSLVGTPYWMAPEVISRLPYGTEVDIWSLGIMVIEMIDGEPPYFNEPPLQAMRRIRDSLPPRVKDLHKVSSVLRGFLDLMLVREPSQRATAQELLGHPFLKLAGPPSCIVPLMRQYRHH
UniProt Q9NQU5: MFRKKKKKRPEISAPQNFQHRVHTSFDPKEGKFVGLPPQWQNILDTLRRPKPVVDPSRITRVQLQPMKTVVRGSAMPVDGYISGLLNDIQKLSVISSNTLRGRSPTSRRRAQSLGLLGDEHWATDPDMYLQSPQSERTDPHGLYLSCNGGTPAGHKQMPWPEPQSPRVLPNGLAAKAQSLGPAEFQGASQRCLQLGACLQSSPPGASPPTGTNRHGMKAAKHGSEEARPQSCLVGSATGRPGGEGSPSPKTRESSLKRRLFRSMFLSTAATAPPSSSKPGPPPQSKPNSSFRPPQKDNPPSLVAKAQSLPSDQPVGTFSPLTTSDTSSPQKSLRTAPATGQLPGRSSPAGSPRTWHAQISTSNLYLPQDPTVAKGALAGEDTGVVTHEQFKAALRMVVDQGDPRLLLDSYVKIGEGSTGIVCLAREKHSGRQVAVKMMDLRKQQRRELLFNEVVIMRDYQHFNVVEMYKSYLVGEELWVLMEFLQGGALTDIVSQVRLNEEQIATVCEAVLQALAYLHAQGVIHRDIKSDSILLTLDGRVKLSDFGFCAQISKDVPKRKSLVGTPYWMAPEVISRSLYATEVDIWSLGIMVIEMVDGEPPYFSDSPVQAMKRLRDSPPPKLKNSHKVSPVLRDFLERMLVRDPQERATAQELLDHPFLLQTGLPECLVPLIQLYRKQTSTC
UniProt P16234: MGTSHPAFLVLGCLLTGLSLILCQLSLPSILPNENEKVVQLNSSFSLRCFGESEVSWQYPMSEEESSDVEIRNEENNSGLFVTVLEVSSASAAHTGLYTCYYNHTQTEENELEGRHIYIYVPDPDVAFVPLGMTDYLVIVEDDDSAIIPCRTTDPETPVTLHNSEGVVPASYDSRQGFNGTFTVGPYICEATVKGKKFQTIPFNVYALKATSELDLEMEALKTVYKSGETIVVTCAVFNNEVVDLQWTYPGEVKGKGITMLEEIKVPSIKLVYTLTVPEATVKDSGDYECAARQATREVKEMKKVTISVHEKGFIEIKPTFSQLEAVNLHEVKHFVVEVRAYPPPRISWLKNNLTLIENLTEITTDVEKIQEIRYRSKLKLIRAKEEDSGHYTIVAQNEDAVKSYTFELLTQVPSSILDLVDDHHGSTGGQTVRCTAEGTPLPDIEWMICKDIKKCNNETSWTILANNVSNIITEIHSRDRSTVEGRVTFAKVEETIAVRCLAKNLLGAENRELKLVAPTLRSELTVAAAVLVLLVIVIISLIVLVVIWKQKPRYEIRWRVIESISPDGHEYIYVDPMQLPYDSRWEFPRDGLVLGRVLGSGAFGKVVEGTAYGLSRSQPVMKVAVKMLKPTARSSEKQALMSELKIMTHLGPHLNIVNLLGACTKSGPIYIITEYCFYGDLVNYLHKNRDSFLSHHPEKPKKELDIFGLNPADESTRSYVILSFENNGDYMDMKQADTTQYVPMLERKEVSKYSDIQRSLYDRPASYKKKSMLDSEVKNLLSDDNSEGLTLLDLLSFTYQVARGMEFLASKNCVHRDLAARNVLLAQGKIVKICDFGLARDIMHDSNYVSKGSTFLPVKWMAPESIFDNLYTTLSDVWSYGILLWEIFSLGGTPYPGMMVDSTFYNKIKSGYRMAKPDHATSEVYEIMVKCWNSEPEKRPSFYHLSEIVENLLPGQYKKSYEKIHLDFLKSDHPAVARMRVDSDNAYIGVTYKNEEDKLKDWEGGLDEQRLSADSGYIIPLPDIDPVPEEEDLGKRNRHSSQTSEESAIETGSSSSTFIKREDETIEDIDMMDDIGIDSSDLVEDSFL

[5] = biological target: T1, Testis-specific serine/threonine-protein kinase 2 (Homo sapiens); conditions: at 10 µM
[6] = biological target: Tyrosine-protein kinase TXK (Homo sapiens) (UniProt P42681); conditions: at 10 µM
[7] = biological target: T2, Serine/threonine-protein kinase ULK2 (Homo sapiens) (UniProt Q8IYT8); conditions: at 10 µM
T2 sequence (whole entry): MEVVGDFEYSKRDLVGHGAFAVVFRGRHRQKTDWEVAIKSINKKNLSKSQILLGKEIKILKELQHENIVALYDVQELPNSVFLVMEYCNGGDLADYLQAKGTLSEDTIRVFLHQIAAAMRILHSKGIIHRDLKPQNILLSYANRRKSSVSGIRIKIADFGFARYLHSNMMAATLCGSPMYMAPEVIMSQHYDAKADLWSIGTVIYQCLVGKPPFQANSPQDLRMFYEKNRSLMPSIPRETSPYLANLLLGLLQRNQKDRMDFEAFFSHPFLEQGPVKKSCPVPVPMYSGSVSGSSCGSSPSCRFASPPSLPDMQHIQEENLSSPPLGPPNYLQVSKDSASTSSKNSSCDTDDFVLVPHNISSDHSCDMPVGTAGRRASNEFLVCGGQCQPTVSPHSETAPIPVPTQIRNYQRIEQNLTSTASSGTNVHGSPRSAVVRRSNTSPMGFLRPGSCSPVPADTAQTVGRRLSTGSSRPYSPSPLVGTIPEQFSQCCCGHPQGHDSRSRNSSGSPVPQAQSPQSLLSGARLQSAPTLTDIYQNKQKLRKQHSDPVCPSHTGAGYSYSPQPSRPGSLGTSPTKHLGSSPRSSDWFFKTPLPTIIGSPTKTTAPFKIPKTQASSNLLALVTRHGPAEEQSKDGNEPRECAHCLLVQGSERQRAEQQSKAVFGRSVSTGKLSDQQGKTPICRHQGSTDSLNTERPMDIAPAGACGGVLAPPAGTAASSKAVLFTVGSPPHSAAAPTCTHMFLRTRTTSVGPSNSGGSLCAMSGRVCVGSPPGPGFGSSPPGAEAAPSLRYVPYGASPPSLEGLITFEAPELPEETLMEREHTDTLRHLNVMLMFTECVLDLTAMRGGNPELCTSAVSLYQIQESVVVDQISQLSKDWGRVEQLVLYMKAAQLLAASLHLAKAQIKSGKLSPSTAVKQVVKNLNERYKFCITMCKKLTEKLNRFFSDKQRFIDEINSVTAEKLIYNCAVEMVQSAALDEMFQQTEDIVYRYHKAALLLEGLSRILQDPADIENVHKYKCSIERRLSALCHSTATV

[8] = biological target: Serine/threonine-protein kinase ULK3 (Homo sapiens) (UniProt Q6PHR2); conditions: at 1 µM
[9] = biological target: Serine/threonine-protein kinase VRK2 (Homo sapiens) (UniProt Q86Y07); conditions: at 10 µM
[10] = biological target: Serine/threonine-protein kinase WNK2 (Homo sapiens) (UniProt Q9Y3S1); conditions: at 1 µM;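 further: residual WNK2 kinase activity expressed as percent of uninhibited control, assayed in MOPS buffer at pH 7.0 containing EDTA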
[11] = biological target: Serine/threonine-protein kinase WNK3 (Homo sapiens) (UniProt Q9BYP7); conditions: at 1 µM
[12] = biological target: Serine/threonine-protein kinase WNK3 (Homo sapiens) (UniProt Q9BYP7); conditions: at 10 µM
[13] = biological target: Death-associated protein kinase 3 (Homo sapiens) (UniProt O43293); conditions: at 1 µM
[14] = biological target: Mast/stem cell growth factor receptor Kit (Homo sapiens) (UniProt P10721); conditions: at 10 µM
[15] = biological target: Proto-oncogene tyrosine-protein kinase Src (Homo sapiens) (UniProt P12931); conditions: at 1 µM
[16] = biological target: Proto-oncogene tyrosine-protein kinase Src (Homo sapiens) (UniProt P12931); conditions: at 10 µM
[17] = biological target: Serine/threonine-protein kinase mTOR (Homo sapiens) (UniProt P42345); conditions: at 1 µM
[18] = biological target: Serine/threonine-protein kinase mTOR (Homo sapiens) (UniProt P42345); conditions: at 10 µM
[19] = biological target: T3, Serine/threonine-protein kinase Nek6 (Homo sapiens) (UniProt Q9HC98); conditions: at 1 µM
T3 sequence (whole entry): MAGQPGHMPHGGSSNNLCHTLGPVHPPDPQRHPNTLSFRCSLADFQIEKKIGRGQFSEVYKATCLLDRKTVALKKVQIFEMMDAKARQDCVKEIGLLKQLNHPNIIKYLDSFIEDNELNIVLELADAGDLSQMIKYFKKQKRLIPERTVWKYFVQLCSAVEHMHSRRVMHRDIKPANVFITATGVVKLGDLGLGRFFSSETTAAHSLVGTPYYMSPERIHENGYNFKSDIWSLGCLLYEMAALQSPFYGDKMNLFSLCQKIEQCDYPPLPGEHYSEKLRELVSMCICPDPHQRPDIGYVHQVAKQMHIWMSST

[20] = biological target: Serine/threonine-protein kinase Nek7 (Homo sapiens) (UniProt Q8TDX7); conditions: at 1 µM
[21] = biological target: Serine/threonine-protein kinase Nek7 (Homo sapiens) (UniProt Q8TDX7); conditions: at 10 µM
[22] = biological target: Serine/threonine-protein kinase PAK 4 (Homo sapiens) (UniProt O96013); conditions: at 1 µM
[23] = biological target: Serine/threonine-protein kinase PAK 5 (Homo sapiens) (UniProt Q9P286); conditions: at 1 µM
[24] = biological target: Serine/threonine-protein kinase PAK 6 (Homo sapiens) (UniProt Q9NQU5); conditions: at 10 µM
[25] = biological target: NUAK family SNF1-like kinase 1 (Homo sapiens) (UniProt O60285); conditions: at 1 µM
[26] = biological target: Platelet-derived growth factor receptor alpha (Homo sapiens) (UniProt P16234); conditions: at 10 µM
[27] = biological target: Platelet-derived growth factor receptor beta (Homo sapiens) (UniProt P09619); conditions: at 1 µM

For `O=C1NC(=O)C(c2cn(CCCn3ccnc3)c3ccccc23)=C1Nc1ccccc1`, the residual activity [1] was 91%, the residual activity [2] was 97% and the residual activity [3] was 91%. For the same molecule, the residual activity [4] was 99%, the residual activity [5] was 91% and the residual activity [6] was 91%. For the same molecule, the residual activity [7] was 88%, the residual activity [8] was 92% and the residual activity [9] was 85%. For the same molecule, the residual activity [10] was inactive: 93%, the residual activity [11] was inactive: 91% and the residual activity [12] was 86%. The residual activity [13] was 91%, the residual activity [14] was 96% and the residual activity [15] was 88%. The residual activity [16] was 88%, the residual activity [17] was 97% and the residual activity [18] was 103%. The residual activity [19] was inactive: 92%, the residual activity [20] was inactive: 117% and the residual activity [21] was inactive: 92%. For the same molecule, the residual activity [22] was 85%, the residual activity [23] was 90% and the residual activity [24] was 95%. The residual activity [25] was 91%, the residual activity [26] was 89% and the residual activity [27] was 96%.
